The target of the experiment is T1, Electric eel acetylcholinesterase (AChE) (Electrophorus electricus, UniProt O42275).
T1 construct: commercial enzyme from Sigma (USA); no further details printed
Kind of experiment: Ellman colorimetric assay with acetylthiocholine iodide and DTNB, […] nm. The format is biochemical. The note with it: read-out: IC50 value (mg/ml) (converted).

The chains behind the UniProt entries cited, without tags or fusion partners. Residues count along the entry.
UniProt O42275, 24-633: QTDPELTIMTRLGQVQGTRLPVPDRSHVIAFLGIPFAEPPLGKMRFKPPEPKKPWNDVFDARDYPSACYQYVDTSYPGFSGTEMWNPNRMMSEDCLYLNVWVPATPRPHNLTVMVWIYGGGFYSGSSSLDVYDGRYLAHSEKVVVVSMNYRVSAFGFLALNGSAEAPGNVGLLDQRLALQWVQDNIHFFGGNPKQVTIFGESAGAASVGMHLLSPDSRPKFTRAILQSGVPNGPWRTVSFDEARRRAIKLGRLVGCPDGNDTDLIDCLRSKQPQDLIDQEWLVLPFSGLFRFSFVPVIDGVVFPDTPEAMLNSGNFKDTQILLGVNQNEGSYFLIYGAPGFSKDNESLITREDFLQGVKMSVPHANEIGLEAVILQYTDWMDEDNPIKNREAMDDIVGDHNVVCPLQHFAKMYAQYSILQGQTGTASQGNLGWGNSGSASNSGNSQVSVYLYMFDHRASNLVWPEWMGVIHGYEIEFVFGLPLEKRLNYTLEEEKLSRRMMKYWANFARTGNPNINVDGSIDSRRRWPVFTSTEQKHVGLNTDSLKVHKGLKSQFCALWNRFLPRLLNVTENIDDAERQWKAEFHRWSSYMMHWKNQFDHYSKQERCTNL

Each structure is given as a SMILES string.

For the compound `CNC(=O)Oc1ccc2c(c1)[C@]1(C)CCN(C)[C@@H]1N2C` [Eserine], the IC50 is 2.91 mM.

(Values after paper PMC3093628, “Screening the methanol extracts of some Iranian plants for acetylcholinesterase inhibitory activity” (Research in Pharmaceutical Sciences, 2009).)
